Biological target: T1, IL-23R (Homo sapiens, UniProt Q5VWK5)
T1 construct: HEK293 cells containing IL-23R, IL-12RP31 and a firefly luciferase reporter gene driven by a STAT-inducible promoter (Promega); host or cells: HEK293
T1 sequence (Q5VWK5 24-629): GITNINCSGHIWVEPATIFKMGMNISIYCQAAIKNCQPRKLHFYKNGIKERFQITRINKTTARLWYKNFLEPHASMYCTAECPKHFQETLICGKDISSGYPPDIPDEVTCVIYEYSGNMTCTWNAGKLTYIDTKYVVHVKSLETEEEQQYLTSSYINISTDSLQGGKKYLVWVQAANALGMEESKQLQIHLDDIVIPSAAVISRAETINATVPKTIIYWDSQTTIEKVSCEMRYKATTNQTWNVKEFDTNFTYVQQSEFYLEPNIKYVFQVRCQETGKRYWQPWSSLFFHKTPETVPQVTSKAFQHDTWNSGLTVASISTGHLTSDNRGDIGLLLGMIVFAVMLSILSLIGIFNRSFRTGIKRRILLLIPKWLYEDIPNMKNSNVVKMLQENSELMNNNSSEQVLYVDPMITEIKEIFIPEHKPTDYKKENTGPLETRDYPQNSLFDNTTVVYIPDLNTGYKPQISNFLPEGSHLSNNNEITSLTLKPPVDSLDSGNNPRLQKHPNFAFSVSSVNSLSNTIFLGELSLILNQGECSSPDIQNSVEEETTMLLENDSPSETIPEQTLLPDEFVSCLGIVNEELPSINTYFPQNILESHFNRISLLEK
Experiment: IL23R Reporter Assay
Format: cell-based
Conditions: HEK293 cells containing IL-23R, IL-12Rβ1 and STAT-inducible firefly luciferase reporter; 10 ng/mL IL-23 (EC90); 5 h at 37° C.; read-out: IC50
Excerpt: IL-23 binding to IL-23 receptors results in the activation of the Signal Transducer and Activator of Transcription 3 (STAT3) by phosphorylation and downstream signaling events. Accordingly. the ability of the inhibitors described herein to block IL-23 action can be assessed by monitoring the status of STAT3 activation in response to IL-23. This may be accomplished in reporter cell assays or in intact cells such as peripheral blood mononuclear cells (PBMCs).
Compounds were serially diluted in 100% (v/v) DMSO) and plated using an Echo acoustic dispenser (Labcyte) into 1536-well non-treated black assay plates (Corning #9146). 3 µL of HEK293 cells containing IL-23R, IL-12RP31 and a firefly luciferase reporter gene driven by a STAT-inducible promoter (Promega) were added to the plates (4000 cells/well), followed by 3 μL of 10 ng/mL IL-23 (equivalent to EC90 concentration). After 5 h at 37° C., 5% CO2, 95% relative humidity, cells were placed at 20° C. and treated with BioGlo reagent (Promega) according to the Manufacturer's instructions. Luminescence was measured on a Pherastar FSX (BMG LabTech). The data, provided in Tables 5a and 5b, were normalized to IL-23 treatment (0% inhibition) and 30 μM of control inhibitor (100% inhibition), and IC50 values were determined using a 4-parameter Hill equation.

Row | IC50 [nM] | SMILES
1 | 0.021 | CC(=O)NCCCC[C@@H]1NC(=O)[C@H](Cc2c[nH]c3c(C)cccc23)NC(=O)[C@H]([C@@H](C)O)NC(=O)[C@H](CC(N)=O)NC(=O)[C@@H](NC(C)=O)C(C)(C)SSC(C)(C)[C@@H](C(=O)N[C@@H](Cc2ccc(OCCN)cc2)C(=O)N[C@@H](Cc2ccc3ccccc3c2)C(=O)NC2(C(=O)N[C@@H](CCCCNC(=O)COCCOCCNC(=O)CCOCCOCCOCCOCCOCCOCCNC(=O)CC[C@H](NC(=O)CCCCCCCCCCCCCCC(=O)O)C(=O)O)C(=O)N[C@@H](CC(N)=O)C(=O)N[C@@H](Cc3cccnc3)C(=O)N(C)CC(N)=O)CCOCC2)NC1=O [Example 38, MeCO-Pen*-N-T-7MeW-K(Ac)-Pen*-AEF-2Nal-THP-K(PEG2PEG6gEC16OH)-N-3Pya-Sar-CONH2]
2 | 0.023 | CC(=O)NCCCC[C@@H]1NC(=O)[C@H](Cc2c[nH]c3c(C)cccc23)NC(=O)[C@H]([C@@H](C)O)NC(=O)[C@H](CC(N)=O)NC(=O)[C@@H](NC(C)=O)C(C)(C)SSC(C)(C)[C@@H](C(=O)N[C@@H](Cc2ccc(OCCN)cc2)C(=O)N[C@@H](Cc2ccc3ccccc3c2)C(=O)NC2(C(=O)N[C@@H](CCCCNC(=O)COCCOCCNC(=O)COCCOCCNC(=O)CCCCCCCCCCCCCCC(=O)O)C(=O)N[C@@H](CC(N)=O)C(=O)N[C@@H](Cc3cccnc3)C(=O)N(C)CC(N)=O)CCOCC2)NC1=O [Example 40, MeCO-Pen*-N-T-7MeW-K(Ac)-Pen*-AEF-2Nal-THP-K(PEG2PEG2C16OH)-N-3Pya-Sar-CONH2]
3 | 0.18 | CC(=O)NCCCC[C@@H]1NC(=O)[C@H](Cc2c[nH]c3c(C)cccc23)NC(=O)[C@H]([C@@H](C)O)NC(=O)[C@H](CCCCNC(=O)CC[C@H](NC(=O)CCCCCCCCCCCCCCCCC(=O)O)C(=O)O)NC(=O)[C@@H](NC(=O)[C@@H](CCCNC(=N)N)NC(C)=O)C(C)(C)SSC(C)(C)[C@@H](C(=O)N[C@@H](Cc2ccc(OCCN)cc2)C(=O)N[C@@H](Cc2ccc3ccccc3c2)C(=O)NC2(C(=O)N[C@@H](CCCCNC(C)=O)C(=O)N[C@@H](CC(N)=O)C(=O)N[C@@H](Cc3cccnc3)C(=O)N(C)CC(N)=O)CCOCC2)NC1=O [Example 51, MeCO-r-Pen*-K(gEC18OH)-T-7MeW-K(Ac)-Pen*-AEF-2Nal-THP-K(Ac)-N-3Pya-Sar-CONH2]
4 | 0.17 | CC(=O)NCCCC[C@@H]1NC(=O)[C@H](Cc2c[nH]c3c(C)cccc23)NC(=O)[C@H]([C@@H](C)O)NC(=O)[C@H](CC(N)=O)NC(=O)[C@@H](NC(=O)[C@@H](CCCNC(=N)N)NC(C)=O)C(C)(C)SSC(C)(C)[C@@H](C(=O)N[C@@H](Cc2ccc(OCCN)cc2)C(=O)N[C@@H](Cc2ccc3ccccc3c2)C(=O)NC2(C(=O)N[C@@H](CCCCNC(=O)COCCOCCNC(=O)COCCOCCNC(=O)[C@@H]3CCCN3C(=O)CCCCCCCCCCCCCCCCC(=O)O)C(=O)N[C@@H](CC(N)=O)C(=O)N[C@@H](Cc3cccnc3)C(=O)N(C)CC(N)=O)CCOCC2)NC1=O [Example 56, MeCO-r-Pen*-N-T-7MeW-K(Ac)-Pen*-AEF-2Nal-THP-K(PEG2PEG2PC18OH)-N-3Pya-Sar-CONH2]
5 | 0.044 | CC(=O)NCCCC[C@@H]1NC(=O)[C@H](Cc2c[nH]c3c(C)cccc23)NC(=O)[C@H]([C@@H](C)O)NC(=O)[C@H](CC(N)=O)NC(=O)[C@@H](NC(=O)[C@@H](CCCCNC(=O)COCCOCCNC(=O)CCOCCOCCOCCOCCOCCOCCNC(=O)CC[C@H](NC(=O)CCCCCCCCCCCCCCCCC(=O)O)C(=O)O)NC(C)=O)C(C)(C)SSC(C)(C)[C@@H](C(=O)N[C@@H](Cc2ccc(OCCN)cc2)C(=O)N[C@@H](Cc2ccc3ccccc3c2)C(=O)NC2(C(=O)N[C@@H](CCCCNC(C)=O)C(=O)N[C@@H](CC(N)=O)C(=O)N[C@@H](Cc3cccnc3)C(=O)N(C)CC(N)=O)CCOCC2)NC1=O [Example 61, MeCO-k(PEG2PEG6 gE C18OH)-Pen*-N-T-7MeW-K(Ac)-Pen*-AEF-2Nal-THP-K(Ac)-N-3Pya-Sar-CONH2]

Source: US12478617B2, “Lipidated peptide inhibitors of interleukin-23 receptor” (JANSSEN BIOTECH, INC., priority 2021, dated 2025)
